The record followed here is patent US5001160A (priority 1989, dated 1991).

Amino acid sequences for entries named in this document (tags omitted). Residues count along the entry.
UniProt H0W1Z3, 1-590: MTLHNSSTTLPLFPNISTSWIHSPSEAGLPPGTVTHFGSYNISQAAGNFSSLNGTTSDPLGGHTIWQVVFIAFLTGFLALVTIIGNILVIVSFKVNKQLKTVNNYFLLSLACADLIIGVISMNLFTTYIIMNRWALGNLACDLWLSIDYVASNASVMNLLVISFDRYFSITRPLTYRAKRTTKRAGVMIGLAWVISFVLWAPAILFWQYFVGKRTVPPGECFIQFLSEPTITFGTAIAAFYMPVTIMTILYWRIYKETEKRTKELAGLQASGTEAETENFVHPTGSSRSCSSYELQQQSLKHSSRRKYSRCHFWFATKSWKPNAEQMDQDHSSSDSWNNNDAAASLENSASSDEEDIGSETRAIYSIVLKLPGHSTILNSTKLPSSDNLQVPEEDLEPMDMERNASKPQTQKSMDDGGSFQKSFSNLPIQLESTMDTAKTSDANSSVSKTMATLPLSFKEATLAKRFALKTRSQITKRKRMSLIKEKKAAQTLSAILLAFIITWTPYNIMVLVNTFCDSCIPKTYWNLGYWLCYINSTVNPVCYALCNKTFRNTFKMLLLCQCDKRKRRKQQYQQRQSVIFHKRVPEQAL

As a reminder, the Kb is the equilibrium dissociation constant of an antagonist, usually derived from a functional assay. Higher therefore signals lower antagonist affinity.

This assay addresses postsynaptic muscarinic cholinergic receptors (bladder detrusor muscle) (Cavia porcellus, UniProt H0W1Z3). The note with it: antagonism of carbachol contraction, guinea pig bladder detrusor strips.

For the compound `O=C(CN1CCN(Cc2ccccc2)CC1)C(O)(c1ccccc1)C1CCCCC1` (stereo not shown), the Kb stood at 20 nM.
